Source: US20240317732A1, “A NEW MOLECULAR SCAFFOLD FOR TARGETING HRPN13” (THE UNITED STATES OF AMERICA AS REPRESENTED BY THE …, priority 2021, published 2024)

Sequences of proteins named here, by UniProt entry; tags and fusion partners are left off. Residues count along the entry.
UniProt Q16186, 1-150 limits assumed: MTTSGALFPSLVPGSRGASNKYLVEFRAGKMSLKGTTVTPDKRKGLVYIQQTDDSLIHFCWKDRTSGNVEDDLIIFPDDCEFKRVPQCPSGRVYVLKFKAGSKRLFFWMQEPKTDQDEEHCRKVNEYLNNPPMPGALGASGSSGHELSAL

Experiments:
hRpn13 Pru [1] = target: T1, hRpn13 Pru (Homo sapiens (Human), UniProt Q16186); test: 2D NMR (1H,15N HSQC) binding to 15N-labeled hRpn13 Pru; conditions: assessed by ITC and NMR
Description: We conducted in silico docking screens of commercial libraries containing in total 63 million compounds by using the hRpn13 Pru:hRpn2 structure and hRpn2-binding site of hRpn13 as a binding pocket. Twenty-two potential lead compounds were selected for validation by biophysical assays. hRpn13 W108 is partially exposed when free but buried by hRpn2, enabling tryptophan quenching by differential scanning fluorimetry (DSF at λ350) for assaying binding and this approach was used to screen for compound binding to this site. 20 μM compound (separately for twenty compounds) was incubated with 1 μM hRpn13 Pru and fluorescence emission at 350 nm measured. […] The compounds were separately added at 10-fold molar excess to 20 μM ^15N-labeled hRpn13 Pru and binding assessed at 25° C. by 2D NMR for samples dissolved in NMR buffer (20 mM sodium phosphate, 50 mM NaCl, 2 mM DTT, 10% DMSO-d6 (deuterated DMSO), pH 6.5). […]
For screening by ^1H, ^15N HSQC experiments, small molecule dissolved in DMSO-d6 was added to 20 μM or 250 μM ^15N-labeled hRpn13 Pru at a molar excess of 2-fold (for XL5) or 10-fold (for all compounds tested) in NMR buffer (20 mM sodium phosphate, 50 mM NaCl, 2 mM DTT, 10% DMSO-d6, pH 6.5). […] Three ^13C-half-filtered NOESY experiments were recorded with a 100 ms mixing time on asymmetrically labeled samples dissolved in NMR buffer. […]

hRpn13 Pru [2] = target: T1, hRpn13 Pru; test: Isothermal titration calorimetry (ITC) of hRpn13 Pru binding; conditions: read-out: ITC Kd; 200 μM hRpn13 Pru into 20 μM compound, 25° C., buffer C
Procedure: ITC experiments were performed at 25° C. on a MicroCal iTC200 system (Malvern, PA, USA). hRpn13 Pru, XL5, XL5 derivative, or RA190 were prepared in buffer C. One aliquot of 0.5 μL followed by 17 or 18 aliquots of 2.1 μL of 200 μM hRpn13 Pru was injected at 750 r.p.m. into a calorimeter cell (volume […]) that contained 20 μM XL5, XL5 derivative, or RA190. Blank experiments were performed by replacing XL5, XL5 derivative, or RA190 with buffer in the cell and the resulting data subtracted from the experimental data during analyses. The integrated interaction heat values were normalized as a function of protein concentration and the data were fit with MicroCal Origin 7.0-based software implementing the “One Set of Sites” model to yield binding affinity Ka (1/Kd), stoichiometry, and other thermodynamic parameters. Dissociation constants (Kd) as determined by ITC as well as relative binding affinities of selected compounds are presented n Table 1, while additional information on named compounds including structures, synthesis, and characterization is presented in Examples 3-9: […]

N#CC(=Cc1cccc(NC(=O)c2ccc(C(F)(F)F)cc2)c1)C(=O)Nc1ccccc1C(=O)O
change of affinity for hRpn13 Pru relative to XL5 (hRpn13 Pru [1]): similarly reduced affinity | Kd (hRpn13 Pru [2]): 6.67 µM
